# Test results as given in patent US20050159333A1, “Methods of modulating smooth muscle contractility” (priority 2002, published 2005).
# System: isolated male rat urinary bladder
smiles,measurement,value
"CSCC[C@H](NC(=O)[C@H](CC(C)C)NC(=O)CNC(=O)[C@@H](NC(=O)[C@H](Cc1ccccc1)NC(=O)[C@H](CO)NC(=O)[C@H](CC(=O)O)NC(=O)[C@@H](NC(=O)[C@H](CCCCN)NC(=O)[C@@H](N)Cc1c[nH]cn1)[C@@H](C)O)C(C)C)C(N)=O [NKA, Neurokinin A]",EC50,6.5 ± 3.9 nM
